In patent US8808728B2, “Feed additive for laying hen and feed containing the same” (Unitika Ltd., priority 2004, dated 2014) one finds Solubilities in water data, which are given here for one substance.

This data set in a line: Solubility in water of calcium salts. It counts as physicochemical. The text has this:
The solubility in water of the calcium lactobionate thus obtained was compared with those of other calcium salts (manufactured by Wako Pure Chemical Industries).

In the case of Ca oxalate, the Solubilities in water is 0.001 g/100 mL.
